From patent US20100166855A1, “ORAL INSULIN COMPOSITION AND METHODS OF MAKING AND USING THEREOF” (priority 2003, published 2010)

Conditions: mouse; 14th day after intermuscular injection; implant of crystallized dextran microparticles

Substance: FITC-dextran
- release of macromolecules from implant into muscle tissue: slow release
